# Measurements: US4824941A, “Specific antibody to the native form of 2'5'-oligonucleotides, the method of preparation and the use as reagents in immunoassays or for binding 2'5'-oligonucleotides in biological systems” (priority 1988, dated 1989)
# Assays:
# Hela cells = test: 2'5'-oligo(A) content in interferon treated Hela cells; assay type: cell-based; conditions: Hela S3, 20 units/ml, 24 hrs
# Protocol: This is an example for cells growing in culture, but is universally applicable to any biological material: cell cultures, organs, tissues, bodily fluids such as blood, urine, cerebrospinal fluids, milk or any other suitably available material. Cells in a petri dish are rapidly washed with buffered saline (this step is dispensed with in the case of bodily fluids), then enough ice cold 5% trichloracetic acid (TCA) to cover the layer of cells (3 ml for a 7 cm diameter petri dish) and the dish is kept on ice for 5 min. The TCA and detached cells are removed and centrifuged to remove the insoluble material, and the dish and pellet are re-extracted with a similar volume of 5% TCA and the supernatants pooled. Alternatively, in the case of a cell suspension culture, the cells are pelleted by centrifugation at room temperature, the cells resuspended in a volume of buffered saline equal to the volume of the pellet, and approximately 10 volumes of 5% TCA are added. The insoluble material is removed by centrifugation and the pellet extracted with 1/2 the previous volume of 5% TCA. The supernatants are pooled. All operations with TCA are performed between 0° C. and 5° C. […]
# Cultures of Hela cells respond very well to interferon in the induction of 2'5'-oligo(A) synthetase (see example 1). The basal 2'5'-oligo(A) itself was too low to be measured by other methodology. […]
# 2'5'-oligo(A) synthetase = 2'5'-oligo(A) synthetase in interferon treated Hela cells; assay type: cell-based; conditions: Hela S3, 20 units/ml, 24 hrs
# Protocol: Cultures of Hela cells respond very well to interferon in the induction of 2'5'-oligo(A) synthetase (see example 1). The basal 2'5'-oligo(A) itself was too low to be measured by other methodology. […] Hela cells of the S3 line are cultivated in the presence of 20 units/ml of interferon α2 for 24 hrs. The cells are centrifuged and processed according to example 4. The 2'5'-oligo(A) synthetase is assayed by methods well described in the literature in parallel cultures. The synthetase increases 10-fold over the basal level, while the 2'5'-oligo(A) itself remains at the basal level of 0.45±0.15 nM.
substance,measurement,setting,value
"interferon α2: interferon α2, 20 units/ml for 24 hrs",2'5'-oligo(A) level (remains at the basal level),Hela cells,0.45 ± 0.15 nM
same,increase of 2'5'-oligo(A) synthetase over the basal level,2'5'-oligo(A) synthetase,10 fold
